Conditions: cynomolgus monkey, in vivo, iv

time remaining in plasma at milligram levels: at least 120 hours
Substance: iron dextran

From patent US20080081051A1, “Method of manufacturing anti-tumor and anti-viral compositions” (priority 2006, published 2008)
